The values that follow come from patent publication US20250205244A1, “METHODS OF TREATING MIGRAINE WITH MNK INHIBITORS” (4E Therapeutics, Inc., priority 2021, published 2025).

pIC50: −log10 of the molar value. Where two headings read alike, the source gives them in different places.

Test [1] has as its system eIF4E phosphorylation at Serine 209 in the human embryonic kidney (HEK) 293 cell line. The test is described as follows: Inhibition of eIF4E phosphorylation in HEK293 cells (phospho-specific antibody, fluorescent plate reader). The note with it: read-out: HEK 293 cell IC50, eIF4E phosphorylation at Serine 209, HEK293 cells, 2 hours exposure.
Test [2] concerns WT mice, dural IL-6. Briefly: Dural IL-6-induced acute facial hypersensitivity and grimace in mice. The settings on record: female and male WT mice; 10 mg/kg oral gavage prior to dural IL-6 (0.1 ng); compared to the vehicle group.

As for `Cc1cc(Nc2cc(N)ncn2)c(=O)n2c1C(=O)NC21CCCC2(CC2)CC1` (single isomer, unassigned), the negative-log IC50 (pIC50) (commonly the negative decadic logarithm of the IC50, by convention in mol/L) in test [1] was 7.60; in test [1] (listed as Enatiomer 1 of 4ET-01-027), 7.94. In addition, the “dural IL-6 induced facial grimace measures (grimace score)” value in test [2] is on record as “significantly attenuated”.
